One data set deals with PC-9/GR and PC-9 cells. In words: Resistance index of GEF-resistant strain PC-9/GR (MTT). The note with it: MTT 24 h, PC-9/GR versus PC-9. Type of data set: cell-based, human. On the procedure: PC-9/GR^[50] was constructed by an intermittent action method of stepwise increasing GEF concentration as follows: the PC-9 cells in logarithmic growth phase were inoculated into a 1640 medium containing 10% FBS, a GEF solution having a concentration of 10 μM was used to act for 48 h and then the drug-containing medium was discarded, and the culture was continued after a fresh medium was added. After waiting for PC-9 to resume the normal growth rate, the cells were treated with the GEF with a concentration of 10 μM for 48 h after digestion and passage.
The PC-9/GR and PC-9 cells in logarithmic growth phase were taken, and adjusted to 5×10^4·mL^−1 after trypsinization. 100 μL of cells was added to each well, inoculated in a 96-well culture plate and cultured in a 37° C. 5% CO2 incubator. When the cells were grown to about 80%, GEF was respectively added according to the concentration gradient. 5 replicate wells were arranged in each group, and a normal control group was set at the same time. MTT assay was performed 24 hours after administration. For the specific MTT operation, please refer to “(IV) Research on inhibitory effects of ERG combined with GEF on proliferation of A549 and PC-9 cells (MTT test)” in Part I in details. […] The PC-9/GR cell resistance index was 13.90, which was analyzed by SPSS17.0 software, and the cells were highly resistant to drugs.

The subject of data set [1] is AKT, p-AKT, EGFR, and p-EGFR in A549 cells. The data set can be described thus: Western-blots of AKT, p-AKT, EGFR, p-EGFR, A549 cells. It counts as cell-based, human. To be noted: A549, 48 h, compared with the blank control group and the ERG group.
Data set [2] relates to AKT, p-AKT, EGFR, and p-EGFR in PC-9 cells. The data set can be described thus: Western-blots of AKT, p-AKT, EGFR, p-EGFR, PC-9 cells. It counts as cell-based, human. The note with it: PC-9, 48 h.
For data set [3], the system named is PC-9/GR lung cancer xenografts. In words: Preliminary pharmacodynamic test in PC-9/GR tumor-bearing nude mice. Type of data set: in vivo, BABL/C nude mouse. To be noted: compared with the normal control group and the model control group.

For the compound `COc1cc2ncnc(Nc3ccc(F)c(Cl)c3)c2cc1OCCCN1CCOCC1` [GEF, gefitinib], the “PC-9/GR cell resistance index” value in the data set on PC-9/GR and PC-9 cells was found to be 13.90. Moreover, the p-AKT/AKT level result in data set [1] and in data set [2] (compared with the ERG group) was “significantly decreased” each time. Also, the p-EGFR/EGFR level entry in data set [1], in data set [2] (compared with the ERG group) and in data set [2] (compared with the blank control group) was “significantly decreased” in each case. In data set [3], the spleen index entry was “decreased”.

Source of the values: patent US11123353B2, “Uses of ergosterol combined with gefitinib, preparation methods of liposome and freeze-dried powder thereof” (Zhejiang Chinese Medical University, priority 2019, dated 2021).
